These are literature values, as cited in article PMC4145829 (Drug Design, Development and Therapy, 2014).

This data set deals with VEGFR. Conditions: read-out: VEGFR inhibition IC50; biochemical assays; cited from earlier work.

Take `CNC(=O)c1cc(Oc2ccc(NC(=O)Nc3ccc(Cl)c(C(F)(F)F)c3)cc2)ccn1` [Sorafenib]: the IC50 is 0.026 to 0.1 µM.

By IC50 is commonly meant the midpoint of a concentration-inhibition curve.
